IC50 data for one molecule are collected here from patent EP3338775B1, “USE OF BUTYLIDENEPHTHALIDE” (Everfront Biotech Inc., priority 2015, dated 2017).

This assay deals with brain CSCs ^CD133+. In words: MTT cell viability assay on brain CSCs CD133+. The format is cell-based. The following applies: 24 h, read-out: IC50 to brain CSCs ^CD133+. The text has this:
Thereafter, a cell viability assay, MTT assay, was utilized to analyze the viabilities of brain CSCs ^CD133+ and malignant glioma DBTRG cells. […]

Where “and” joins values, the source holds several entries; their conditions need not be identical. Equal values may be shown once.

In the case of `O=NN(CCCl)C(=O)NCCCl` [BCNU, bis-chloroethylnitrosourea], the half-maximal inhibitory concentration (IC50) is 378 µM and 80.8 µg/mL.
